Reference: BindingDB's records for doi:10.1021/jm980718d (University of Massachusetts Medical Center, 1999)

Biological target: Uracil-DNA glycosylase (Human herpesvirus 1) (UniProt P10186)
Assay: Inhibitory potency against HSV-1 UDG (Herpes Simplex virus type-I Uracil DNA glycosylase)

IC50: 150 µM
SMILES: CCCCc1ccc(Nc2cc(=O)[nH]c(=O)[nH]2)cc1 [6-(4-Butyl-phenylamino)-1H-pyrimidine-2,4-dione]
